According to patent publication US9061077B2, “Methods of determining renal function using technetium-99m tricarbonyl-nitrilotriacetic acid” (Emory University, priority 2008, dated 2015):

Experiments:
[1] = rat urine 10 min, plasma 2-3 min post-injection
[2] = Biodistribution in rats with renal pedicle ligation (renal failure model), Group B; conditions: 60 min; for Percent injected dose in bowel: small and large intestines; for Percent injected dose in blood: renal pedicle ligation Group B, n=6
[3] = rat, in vivo
[4] = Plasma clearance in healthy volunteers (single injection, two-compartment model); conditions: normal volunteers, individual values and mean; listed as 99mTc-NTA
[5] = rat, in vivo; remark: listed apart in the source

Question: With “technetium-99m tricarbonyl-nitrilotriacetic acid [^99mTc(CO)3(NTA)]” as the substance, how does the “In vivo stability (metabolites by HPLC)” value [1] read?
Answer: only one peak in urine (FIG. 2B) and plasma (FIG. 2C)

Question: What about the “Percent injected dose in kidney” value ([2]; Group B) of the same substance?
Answer: 0.9 ± 0.2%

Question: What about the “Percent injected dose in bowel” value ([2]; Group B, listed as 99mTc-NTA) of the same substance?
Answer: 5.6 ± 0.9%

Question: What about the “Percent injected dose in bowel” value ([2]; Group B, listed as Na2[^99mTc(CO)3(NTA)]) of the same substance?
Answer: 5.6%

Question: And the “Percent injected dose in blood” value ([2]; listed as 99mTc-NTA)?
Answer: 19.9 ± 1.2%

Question: And the “Percent injected dose in blood” value ([2]; listed as Na2[^99mTc(CO)3(NTA)])?
Answer: 19.9%

Question: And the Extraction fraction [3]?
Answer: 93.5%

Question: And the “Clear NTA/OIH” value [4]?
Answer: 113% and 140% and 102% and 78% and 98% and 80%

Question: What about the “Mean total injected activity present in heart, lungs, spleen, blood and liver” value [5] of the same substance?
Answer: < 0.8%

Where “and” joins values, the source holds several entries; their conditions need not be identical. Identical values can stand only once.
